The target of the assay is human P-selectin (Homo sapiens, UniProt P16109). As to the kind of experiment: Competition ELISA: SH31-peroxidase (SH31-PO) binding, purified Ugi products. Conditions: read-out: IC50, inhibition of SH31-PO binding to human P-selectin, purified compounds, separated isomers, initial tests. Here is the method:
Next, the most promising compounds were purified and the isomers were separated in order to establish IC50-values. […] The assay is currently being optimised for the Trp-compounds. Finally, several further compounds were prepared, based on the most promising structures to establish the influence of the various substituents, and tested.
Purified Ugi products were assayed for its ability to inhibit SH31-peroxidase (SH31-PO) binding to human P-selectin. SH31-PO, a tetrameric SH31/strepPO complex was freshly prepared by incubating streptavidin-PO (Amersham Life Science, Little Chalfont, UK; 5.0 μl 2.0 μM) and SH31-biotin (biotin-[…] , 1.5 μl 190 μM) for 2 hours at room temperature in assay buffer (20 mM HEPES, 150 mM NaCl, 1 mM CaCl2, pH 7.4). For competition studies, a 96 wells microtiter plate (high binding, flat bottom, Costar, Corning, U.S.A.) was coated overnight at 4° C. with 10 μg/ml goat anti-human IgG (Fc specific; Sigma-Aldrich, Zwijndrecht, the Netherlands) in coating buffer (50 mM NaHCO3, pH 9.6). Subsequently, wells were washed with assay buffer and incubated for 1 hour at 37° C. with blocking buffer (3% BSA in assay buffer). After washing with assay buffer, the wells were incubated for 2 hours at 37° C. with human P-selectin IgG-Fc chimera (R&D Systems Europe Ltd., Abingdon, United Kingdom; 0.3 μg/ml). Subsequently, wells were washed with assay buffer and incubated for 1 hour at 4° C. with the SH31-PO complex with or without Ugi products (range 0.4-100 μM). The wells were washed six times with easy buffer and substrate (3,3′,5,5′-tetramethylbenzine (TMB)/H2O2; Pierce, Rockford, USA) was added and wells were incubated at room temperature for 15 minutes. The reaction was halted by addition of 2 M of H2SO4 and the absorbance was measured at 450 nm. IC50s for tested compounds are listed in FIG. 3 together with their chemical structure.
Background: ELISA stands for enzyme-linked immunosorbent assay.

Protein sequences, listed by entry. Tags and fused reporters are not part of them. Chains listed by the source or under a name are the forms on record and can include a tag or linker. Residues count along the entry.
UniProt P16109, 42-771 with tags or gaps limits assumed: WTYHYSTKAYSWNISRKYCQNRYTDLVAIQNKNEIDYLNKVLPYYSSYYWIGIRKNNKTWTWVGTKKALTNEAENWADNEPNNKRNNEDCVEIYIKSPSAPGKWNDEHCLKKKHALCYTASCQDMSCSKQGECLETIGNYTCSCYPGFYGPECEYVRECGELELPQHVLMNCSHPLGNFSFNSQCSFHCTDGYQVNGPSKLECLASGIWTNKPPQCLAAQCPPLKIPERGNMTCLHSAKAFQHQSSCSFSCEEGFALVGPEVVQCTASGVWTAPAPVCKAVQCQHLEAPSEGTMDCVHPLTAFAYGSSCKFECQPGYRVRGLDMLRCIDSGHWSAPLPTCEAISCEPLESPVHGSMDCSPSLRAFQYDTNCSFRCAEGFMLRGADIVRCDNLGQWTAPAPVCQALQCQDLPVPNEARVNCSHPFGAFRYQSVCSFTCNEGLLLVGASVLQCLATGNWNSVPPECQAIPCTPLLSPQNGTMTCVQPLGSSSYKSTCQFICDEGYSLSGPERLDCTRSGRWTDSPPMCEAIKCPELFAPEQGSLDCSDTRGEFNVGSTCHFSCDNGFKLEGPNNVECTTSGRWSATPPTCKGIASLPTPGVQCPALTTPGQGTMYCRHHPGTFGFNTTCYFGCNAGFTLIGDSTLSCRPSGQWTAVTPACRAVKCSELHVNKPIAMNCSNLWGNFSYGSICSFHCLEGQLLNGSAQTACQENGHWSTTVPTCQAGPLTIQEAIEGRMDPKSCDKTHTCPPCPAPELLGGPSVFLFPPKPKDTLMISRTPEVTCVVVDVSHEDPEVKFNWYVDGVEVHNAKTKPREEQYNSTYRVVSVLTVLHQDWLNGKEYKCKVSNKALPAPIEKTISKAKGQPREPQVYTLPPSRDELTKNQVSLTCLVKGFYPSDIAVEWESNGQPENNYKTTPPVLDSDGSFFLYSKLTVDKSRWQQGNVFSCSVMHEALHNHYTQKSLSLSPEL

Like-named read-outs stand apart in the source and are kept apart here.

Broadly, the IC50 is the concentration at which inhibition is half-maximal.

Turning to `CCC(C(=O)NCCC(=O)O)N(C(=O)c1cc(O)c(O)c(O)c1)[C@@H](Cc1ccccc1)C(=O)O` (single isomer, unassigned), the 50% inhibitory concentration (IC50) reads like this: (Isomer 1) 12 µM; (Isomer 2) 5 µM.
Consider `CCC(C(=O)N[C@@H](CCC(=O)O)C(=O)O)N(C(=O)c1cc(O)c(O)c(O)c1)[C@@H](Cc1ccccc1)C(=O)O` (single isomer, unassigned), for which the IC50 came out at 18 µM (Isomer 1) and 8 µM (Isomer 2).

(Values after patent publication US7273951B2, “Polyhydroxy phenols and their use in binding p-selectin” (Astellas Pharma Inc., priority 2003, dated 2007).)
